# Only a part is listed here, and it is no random draw. Results filed as inconclusive are left out. Active and inactive are the calls of the source. The call rests on the fitted dose curve; in most records, active means well fitted cell-killing curve with a large enough effect; inconclusive means small, poorly fitted or top-dose-only effect, or effect the other way, or another doubt; inactive means no such curve, though single readings can be large or run the other way.
# Assay: qHTS for induction of synthetic lethality in tumor cells producing 2HG: qHTS for the HT-1080-IDH1KD cell line;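 on activity, negative = toxicity: 0% = DMSO wells and -100% = cell-free medium wells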
# Details: HT-1080 IDH1 knockdown viability, ATP luminescence, 48 h; series mostly up to 46.1 µM; activity, negative = toxicity: at the top concentration
# Potency means the concentration at half of the fitted maximal effect.
SMILES,"activity, negative = toxicity",Potency
Cc1c2c(nc3ccccc13)SC(C(Cl)Cl)C2 (centres undefined),inactive: 2.16%,–
Cc1cc(=O)[nH]c(N[N+](=O)[O-])n1,inactive: 5.8%,–
O=P1(N(CCCl)CCCl)OCCCN1CCCl (centres undefined),inactive: 1.28%,–
O=P1(N(CCCl)CCCl)Nc2ccccc2N1,inactive: 5.33%,–
COc1ccc2nc(NP(=O)(c3ccccc3)c3ccccc3)sc2c1,inactive: -9.85%,–
COc1cc(I)ccc1[As](=O)(O)O,inactive: -14.1%,–
O=[N+]([O-])c1cc(Oc2ccc([N+](=O)[O-])cc2C(F)(F)F)cc([N+](=O)[O-])c1,inactive: 10.8%,–
COc1ccc(N/C(=N/P(=O)(N2CCOCC2)N2CCOCC2)N2CCOCC2)cc1,inactive: 19.3%,–
O=[As](O)(c1ccc(O)cc1)c1ccccc1O,inactive: -8.42%,–
C[As](=O)(O)c1cccc(C(=O)O)c1,inactive: -2.25%,–
Cc1ccc(OP(=O)(Nc2ccc([N+](=O)[O-])cn2)Oc2ccc(C)cc2)cc1,inactive: 5.03%,–
Cc1ccc2nc3c(c(C)c2c1)CC(C(Cl)Cl)S3 (centres undefined),inactive: -17.7%,–
ClCCSc1nnc(-c2cccnc2)o1,inactive: 5.99%,–
CC(C)c1ccc(OP(=O)(Nc2ccccn2)Oc2ccccc2F)cc1 (centres undefined),inactive: 8.22%,–
COC(=O)C1(C)COP(=O)(N2CCCCCC2)OC1 (centres undefined),inactive: 27.4%,–
CCN(CC)C(=S)SC(NC=O)C(Cl)(Cl)Cl (centres undefined),inactive: -6.2%,–
O=C(OC1CN2CCC1CC2)c1cccc2[nH]cnc12 (centres undefined),inactive: 5.21%,–
CC(C)NC(=O)NP(=O)(Oc1ccccc1)Oc1ccccc1,inactive: 0.96%,–
CCOC(=O)Nc1ccc([As](=O)(O)O)c(O)c1,inactive: 17.9%,–
O=C(O)C(O)c1ccc(N(CCCl)CCCl)cc1 (centres undefined),inactive: -7.43%,–
CC1CCNP(=O)(N(CCCl)CCCl)O1 (centres undefined),inactive: 3.89%,–
COP(=O)(OC)N1CC1c1ccccc1 (centres undefined),inactive: 7.36%,–
Cc1cc(SC(NC(=O)c2ccccc2)C(Cl)(Cl)Cl)nc(C(C)C)n1 (centres undefined),inactive: -4.59%,–
O=P(Nc1ccccn1)(c1cccc2ccccc12)c1cccc2ccccc12,inactive: -4.26%,–

SMILES,"activity, negative = toxicity",Potency
Cc1cc(SC(NC=O)C(Cl)(Cl)Cl)ncn1 (centres undefined),inactive: -3.25%,–
O=[N+]([O-])c1ccc(Nc2ccc(Oc3ccc([N+](=O)[O-])cc3[N+](=O)[O-])cc2)c([N+](=O)[O-])c1,inactive: -0.843%,–
COP1(=S)c2c(C)nn(CCC#N)c2N=C(c2ccc(F)cc2)N1C (centres undefined),inactive: 25.8%,–
O=C(O)C(=O)c1ccc(N(CCCl)CCCl)cc1,inactive: -15.3%,–
O=C(COc1ccccc1)OC1CN2CCC1CC2 (centres undefined),inactive: 9.07%,–
O=C(Nc1ccncc1[N+](=O)[O-])c1ccc([N+](=O)[O-])cc1[N+](=O)[O-],inactive: -13.5%,–
O=C(OC1CN2CCC1CC2)c1cccc([N+](=O)[O-])c1 (centres undefined),inactive: 5.86%,–
CSc1ccc(Nc2c([N+](=O)[O-])cc([N+](=O)[O-])cc2[N+](=O)[O-])cc1,–,active: 16.4 µM
CCOC(=O)c1ccc(NC(=O)C(C)(CCl)SC)cc1 (centres undefined),inactive: 10.7%,–
CCC(C)N(CC(C)C)C(=S)SC(NC(C)=O)C(Cl)(Cl)Cl (centres undefined),inactive: -24.1%,–
O=P1(Nc2ccccn2)COc2ccccc2OC1,inactive: 7.19%,–
CCOP(=O)(NC(=NC(C)c1ccccc1)NC(C)c1ccccc1)OCC (centres undefined),inactive: -2.68%,–
CN(CCCl)Cc1cc(Cl)c(NC2=NCCN2)c(Cl)c1,inactive: -3.89%,–
CCOP(=O)(Nc1ccc(C)cn1)OCC,inactive: -4.23%,–
O=P1(N(CCCl)CCCl)NCCC(C(F)(F)F)O1 (centres undefined),inactive: -1.7%,–
Clc1n[nH]nc1-c1nn[nH][15n]1,inactive: -2.45%,–
CC(C)(C)C(=O)NC(Sc1ncccn1)C(Cl)(Cl)Cl (centres undefined),inactive: -4.74%,–
COc1ccccc1CNC(=O)COC(=O)C(O)(c1ccccc1)c1ccccc1,inactive: -2.41%,–
CC(C)/C=N\N=C(\N)N[N+](=O)[O-],inactive: 21.8%,–
CN(C(=O)Cc1ccc(Cl)c(Cl)c1)[C@@H]1CCCC[C@H]1N1CCCC1,inactive: -5.2%,–
CC1(CBr)Cn2c(nc3ccccc3c2=O)S1 (centres undefined),inactive: 1.37%,–
Cc1nn(-c2ccccc2)c2c1P(=O)(N1CCOCC1)N(C)C(c1ccccc1)=N2 (centres undefined),inactive: 18.5%,–
Cc1ccc(C(=O)OC2CN3CCC2CC3)cc1 (centres undefined),inactive: -2.61%,–
O=C(/C=C/c1ccccc1)OC1CN2CCC1CC2 (centres undefined),inactive: 0.0624%,–

SMILES,"activity, negative = toxicity",Potency
CCCC1OP(=O)(Nc2ccccc2)OCC1CC (centres undefined),inactive: 1.96%,–
Cc1ccc(S(=O)(=O)N(CCCN)CCCc2c(C)nc(N)[nH]c2=O)cc1,inactive: -16.4%,–
O=P1(Nc2ncccn2)COc2ccccc2OC1,inactive: 15.2%,–
Nc1cccc([As](=O)(O)c2ccccc2)c1,inactive: 2.3%,–
O=P1(Nc2ccc(Br)cn2)COc2ccccc2OC1,inactive: 0.599%,–
NS(=O)(=O)c1cccc(NC(=O)COC(=O)C(O)(c2ccccc2)c2ccccc2)c1,inactive: 7.34%,–
Cc1ccc(OCC(=O)OC2CN3CCC2CC3)cc1 (centres undefined),inactive: 13.5%,–
O=[As](O)(c1cccs1)c1cccs1,inactive: 0.859%,–
CCOP1(=S)c2c(C)nn(CCC#N)c2N=C(c2ccccc2F)N1C (centres undefined),inactive: -5.46%,–
O=P(Nc1nccs1)(c1ccccc1)c1nc2ccccc2s1 (centres undefined),inactive: -24.9%,–
O=P(Nc1nccs1)(Oc1ccccc1)Oc1ccccc1,inactive: 11%,–
CS(=O)(=O)c1cc([N+](=O)[O-])c2no[n+]([O-])c2c1,inactive: -17.2%,–
Nc1ccccc1[As](=O)(O)c1ccccc1,inactive: -13.7%,–
O=C(O)COc1ccc([As](=O)(O)O)cc1[N+](=O)[O-],inactive: 29.3%,–
NC(=O)Nc1ccc([As](=O)(O)O)cc1,inactive: 8.17%,–
N#CCCN(C(=O)COC(=O)C(O)(c1ccccc1)c1ccccc1)c1ccc(F)cc1,inactive: -19.3%,–
CN(C(=O)Cc1ccccc1)[C@@H]1CC[C@]2(CCCO2)C[C@H]1N1CCCC1,inactive: 7.95%,–
CCOP1(=S)c2c(C)nn(CCC#N)c2N=C(c2ccc(F)cc2)N1C (centres undefined),inactive: 9.67%,–
CN(C)C(=O)c1cc([N+](=O)[O-])cc2c1-c1c(cc([N+](=O)[O-])cc1[N+](=O)[O-])C2=O,–,active: 8.2 µM
O=[N+]([O-])c1ccc2c(c1)nnn2O,inactive: 1.09%,–
CN(C(=O)Cc1ccc(Cl)c(Cl)c1)[C@H]1CC[C@@]2(CCCO2)C[C@@H]1N1CCCC1,inactive: -10.1%,–
O=C(OC1CN2CCC1CC2)c1ccc(Cl)cc1 (centres undefined),inactive: 2.06%,–
O=[As](O)(O)c1cccnc1,inactive: 9.53%,–
CS(=O)(=O)c1ccc(Cl)c(NC(=O)COC(=O)C(O)(c2ccccc2)c2ccccc2)c1,inactive: 4.95%,–

SMILES,"activity, negative = toxicity",Potency
O=[As](O)(c1cccc(O)c1)c1cccc(O)c1,inactive: 6.47%,–
Cc1cccc(OCC(=O)OC2CN3CCC2CC3)c1 (centres undefined),inactive: 12.8%,–
Cc1ccc(NCCc2c([N+](=O)[O-])cc([N+](=O)[O-])cc2[N+](=O)[O-])cc1,inactive: -1.25%,–
Nc1cccc2c([As](=O)(O)O)cccc12,inactive: 0.934%,–
CCCOP(=S)(Nc1nc(N)cc(=O)[nH]1)OCCC,inactive: 10.8%,–
COc1cc(C2NCCC3(OCCO3)C2(C)C)cc(OC)c1OC (centres undefined),inactive: -2.63%,–
CCOP(=O)(Nc1cccc2ccccc12)OCC,inactive: 7%,–
O=P1(Nc2nc3ccc(Cl)cc3s2)COc2ccccc2O1 (centres undefined),inactive: -2.68%,–
CCOc1ccc(C2=NCC(CBr)S2)cc1 (centres undefined),inactive: 6.07%,–
CC(C)(C)C(=O)NC(Sc1ccccc1)C(Cl)(Cl)Cl (centres undefined),inactive: -12.1%,–
CCc1cc(O)c([N+](=O)[O-])c(C)c1[N+](=O)[O-],inactive: -9.3%,–
Cc1ccccc1CN(C)C(=O)COC(=O)C(O)(c1ccccc1)c1ccccc1,inactive: -5.29%,–
C[C@@H]1C=CCP(=O)(Oc2ccccc2)O1 (some centres undefined),inactive: 12.7%,–
C[C@H]1OP(=O)(Oc2ccccc2)C[C@@H]2O[C@@H]21 (some centres undefined),inactive: 6.24%,–
N#C/C(=C\c1ccc(N(CCBr)CCBr)cc1)C(N)=O,inactive: -21.1%,–
CC(=O)c1ccc(N2CC2c2ccncc2)cc1 (centres undefined),inactive: 10.5%,–
COC(=O)C1(C)COP(=O)(NCc2ccccc2)OC1 (centres undefined),inactive: 16.1%,–
CC(=O)Nc1ccc([As](=O)(O)O)c(O)c1,inactive: 16.5%,–
CC(=O)Nc1ccc(Oc2c([N+](=O)[O-])cc([N+](=O)[O-])cc2[N+](=O)[O-])cc1,inactive: -8.17%,–
c1ccc(-c2nn[nH]n2)c(-c2nn[nH]n2)c1,inactive: 11.7%,–
Cc1ccc(NP(=O)(Oc2cccc(C)c2)Oc2cccc(C)c2)nc1,inactive: 7.68%,–
CCNC(=S)/N=C(\N)N[N+](=O)[O-],inactive: 1.75%,–
O=C(NC1CCS(=O)(=O)C1)NP(=S)(Oc1ccccc1)Oc1ccccc1 (centres undefined),inactive: 8.65%,–
O=P1(N(CCCl)CCCl)OCCC2CCCCN21 (centres undefined),inactive: 13.9%,–

SMILES,"activity, negative = toxicity",Potency
O=C(OC1CN2CCC1CC2)c1ccccc1 (centres undefined),inactive: 14.1%,–
CCC(=O)N1C2C3N(C(=O)CC)C1C1N(C(=O)CC)C(C(N1C(=O)CC)N3C(=O)CC)N2C(=O)CC,inactive: 11.4%,–
COC(=O)c1cc2c(s1)N=C(c1ccccc1)N(C)P2(=O)N1CCOCC1 (centres undefined),inactive: 10.5%,–
CC(=O)NC(SC(=S)N(CC(C)C)CC(C)C)C(Cl)(Cl)Cl (centres undefined),inactive: 5.7%,–
Cc1ccc(OP(=O)(Nc2ccccn2)Oc2ccc(C)cc2)cc1,inactive: -5.03%,–
Cc1ccccc1OP(=O)(Nc1ccccn1)Oc1ccccc1C,inactive: -20.8%,–
CC(NC(=O)COC(=O)C(O)(c1ccccc1)c1ccccc1)c1ccccc1 (centres undefined),inactive: -1.47%,–
CN(C)C(=O)Oc1noc2ccccc12,inactive: 10.2%,–
O=c1c2cc([N+](=O)[O-])ccc2[nH]c2c([N+](=O)[O-])cc([N+](=O)[O-])cc12,–,active: 2.59 µM
Nc1ccc(CCCCOc2ccccc2)cc1,inactive: -19.9%,–
COc1ccc(N)c([N+](=O)[O-])c1[N+](=O)[O-],inactive: -8.29%,–
O=P(Nc1nc2ccccc2s1)(c1ccccc1)c1ccccc1,inactive: -17.6%,–
C[C@H]1OP(=O)(Oc2ccccc2)[C@H](O)[C@H](O)[C@H]1N=[N+]=[N-] (some centres undefined),inactive: -1.29%,–
O=[As](O)(c1ccccc1)c1ccc(O)cc1,inactive: -2.53%,–
CC(=O)NC(SC(=S)N(C)C)C(Cl)(Cl)Cl (centres undefined),inactive: -5.43%,–
O=[N+]([O-])c1ncn(CCn2cnc([N+](=O)[O-])n2)n1,inactive: 9.17%,–
O=C(OC1CN2CCC1CC2)c1cccc(Cl)c1 (centres undefined),inactive: 4.59%,–
Nc1ccc([As](=O)(O)c2ccc([N+](=O)[O-])cc2)cc1,inactive: 24.6%,–
C(Cc1nn[nH]n1)Cc1nn[nH]n1,inactive: 20.3%,–
CC(C)C(=O)NC(Sc1ccccc1)C(Cl)(Cl)Cl (centres undefined),inactive: 16.9%,–
O=P(Nc1nccs1)(c1ccccc1)c1ccccc1,inactive: 10.6%,–
c1nnnn1CCn1cnnn1,inactive: 13.9%,–
COc1ccc(C2=NCC(CBr)S2)cc1 (centres undefined),inactive: -24.6%,–

# Source: PubChem BioAssay AID686971 (National Center for Advancing Translational Sciences (NCATS), 2013)
